# Laboratory results: US10350189B2, “Method for transnasal delivery of blood-brain barrier permeation agent and therapeutic agent” (priority 2015, dated 2019)
# Test system: BBB of the rat test subjects
# Assay: BBB permeability by Evans Blue concentration in brain after intranasal topical application to the SPG
# Format: in vivo
# Conditions: transnasal rivastigmine, Evans Blue IV
# Method: Delivery of a cholinesterase inhibitor at a low dosage is be effective for permeabilizing the BBB. By way of illustration, a rat model was used to test certain embodiments of the present method. In this experiment, normal saline solution (0.90% w/v NaCl in water) was used as a control, and three different concentrations of a cholinesterase inhibitor (rivastigmine) were administered transnasally to permeabilize the BBB of the rat test subjects. Then, to test permeabilization, a solution of Evans Blue dye (molecular weight=960.81 kDa; available from Sigma-Aldrich) was administered intravenously, with the rats' brain tissue being evaluated to determine the permeabilization by cholinesterase inhibitor dosage concentration, and over time. The increased permeabilization lasted about one hour. […] The “mg/kg” dosage was metered to the weight of each rat being tested, and the μg/mg dry weight measures the Evans Blue in harvested CNS tissue.
# Male Sprague-Dawley rats (Harlan, Indianapolis, Ind.) weighing 300-350 g were allowed to acclimate for at least 4 days prior to experimentation. […]
# Rats were anesthetized with urethane (1.5 g/kg, IP) and immobilized on a surgical board equipped with a controlled heating pad. Core temperature, measured via rectal probe, was maintained at 37±1° C. […]
smiles,measurement,value
CCN(C)C(=O)Oc1cccc([C@H](C)N(C)C)c1 [rivastigmine],duration of increased permeabilization,about one
